In US20230158157A1, “POTENT AND SELECTIVE DEGRADERS OF ALK” (DANA-FARBER CANCER INSTITUTE, INC., priority 2020, published 2023) one finds DC50 and Dmax data, which are given here for two molecules.

The chains behind the UniProt entries cited, without tags or fusion partners. A line that says so, or that is headed by a name, gives the form on record, which may keep a tag or linker.
UniProt Q9UM73, with tags, fused parts or gaps: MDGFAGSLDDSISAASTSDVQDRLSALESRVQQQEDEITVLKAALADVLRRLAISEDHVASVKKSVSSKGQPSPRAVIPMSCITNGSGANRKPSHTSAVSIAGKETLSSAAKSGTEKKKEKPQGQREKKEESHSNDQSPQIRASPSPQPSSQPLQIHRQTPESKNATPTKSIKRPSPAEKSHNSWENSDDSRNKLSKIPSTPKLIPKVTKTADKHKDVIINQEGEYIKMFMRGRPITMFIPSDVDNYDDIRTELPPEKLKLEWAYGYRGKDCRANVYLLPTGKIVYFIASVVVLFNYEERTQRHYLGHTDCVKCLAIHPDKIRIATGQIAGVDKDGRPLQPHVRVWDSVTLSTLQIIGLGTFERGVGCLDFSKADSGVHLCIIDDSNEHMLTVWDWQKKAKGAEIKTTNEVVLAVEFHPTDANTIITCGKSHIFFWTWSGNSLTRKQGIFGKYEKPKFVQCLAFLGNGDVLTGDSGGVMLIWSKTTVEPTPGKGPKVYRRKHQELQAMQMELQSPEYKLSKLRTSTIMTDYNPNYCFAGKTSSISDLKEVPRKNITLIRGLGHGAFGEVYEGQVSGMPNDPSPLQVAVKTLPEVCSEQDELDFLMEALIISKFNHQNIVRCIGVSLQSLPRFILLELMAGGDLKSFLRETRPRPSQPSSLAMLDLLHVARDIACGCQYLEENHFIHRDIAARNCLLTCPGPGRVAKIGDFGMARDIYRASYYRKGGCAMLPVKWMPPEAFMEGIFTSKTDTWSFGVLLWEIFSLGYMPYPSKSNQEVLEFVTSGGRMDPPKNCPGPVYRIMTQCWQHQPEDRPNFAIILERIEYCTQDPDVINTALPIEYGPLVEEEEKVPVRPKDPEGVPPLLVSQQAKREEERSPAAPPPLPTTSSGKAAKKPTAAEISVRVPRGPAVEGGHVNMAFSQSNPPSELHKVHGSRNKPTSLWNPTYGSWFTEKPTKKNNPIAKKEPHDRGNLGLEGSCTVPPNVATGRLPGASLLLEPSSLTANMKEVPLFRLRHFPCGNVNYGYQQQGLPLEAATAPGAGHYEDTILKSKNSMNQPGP

Where two headings read alike, the source gives them in different places.

This assay concerns the target T1, EML4-ALK (Homo sapiens, UniProt Q9UM73).
T1 construct: endogenous in cells; host or cells: H3122 (NSCLC), single-cell clone after CRISPR knock-in of HiBit; the other entry of the earlier key: EML4 (Q9HC35, Echinoderm microtubule-associated protein-like 4)
Nature of the assay: EML4-ALK HiBit degradation assay in CRISPR-tagged H3122 cells (Nano-Glo HiBit Lytic Detection). The class given is cell-based. The following applies: 16 hours. The method, then:
NSCLC cell line H3122 was subjected to CRISPR to express EML4-ALK with HiBit-tag on its c-terminal. Single-cell clone was selected and expanded for the following assays that monitor endogenous EML4-ALK level in high throughput manner. Cells were seeded in 384-well white Tissue-culture plates at 3000 cells/well for 8 hours. […] HiBit signal was assessed using Nano-Glo® HiBit Lytic Detection System (Promega™). Degrader-treated was normalized by DMSO-treated controls and DC50 and Dmax were generated by GraphPad Prism® 8.0.
NSCLC cell line H3122 was subjected to CRISPR to express EML4-ALK with HiBit-tag on its c-terminus. A single-cell clone was selected and expanded for the following assays that monitor endogenous EML4-ALK level in high throughput manner. Cells were seeded in 384-well white Tissue-culture plates at 3000 cells/well for 8 hours. […] HiBit signal was assessed using Nano-Glo® HiBit Lytic Detection System (Promega™). Degrader-treated cells were normalized by DMSO-treated controls and DC50 and Dmax were generated by GraphPad Prism® 8.0.
NSCLC cell line H3122 was subjected to CRISPR to express EML4-ALK with HiBit-tag on its C-terminus. A single-cell clone was selected and expanded for the following assays that monitor endogenous EML4-ALK level in high throughput manner. Cells were seeded in 384-well white Tissue-culture plates at 3000 cells/well for 8 hours. […] HiBit signal was assessed using Nano-Glo® HiBit Lytic Detection System (Promega™). Degrader-treated cells were normalized by DMSO-treated controls and DC50 and Dmax were generated by GraphPad Prism® 8.0.

Usually DC50 stands for the concentration at which degradation of the target reaches its halfway point. With `COc1cc(CCNCCCCCC#Cc2cccc3c2C(=O)N(C2CCC(=O)NC2=O)C3=O)c(C)cc1Nc1ncc(Cl)c(Nc2ccccc2P(C)(C)=O)n1` (stereo not drawn) [compound 19, 4-(7-((4-((5-chloro-4-((2-(dimethylphosphoryl)phenyl)amino)pyrimidin-2-yl)amino)-5-methoxy-2-methylphenethyl)amino)hept-1-yn-1-yl)-2-(2,6-dioxopiperidin-3-yl)isoindoline-1,3-dione], under “Table 2, first DC50 column, H3122 EML4-ALK-HiBit, read-out: Degradation DC50”, the DC50 is 160 nM.
By Dmax is commonly meant the largest share of the target that was removed. Turning to `COc1cc(CCNCCCCCC#Cc2ccc3c(c2)CN(C2CCC(=O)NC2=O)C3=O)c(C)cc1Nc1ncc(Cl)c(Nc2ccccc2S(=O)(=O)C(C)C)n1` (stereo not drawn) [compound 92], the Dmax (NCI-H3122, Table 3, H3122 cells) is 93%. Besides, the DC50 (read-out: ALK Degradation (H3122 cells) DC50, Table 3, H3122 cells) worked out at 17 nM.
